Values of other authors in paper PMC6641930 (ACS Omega, 2017).
pKd: −log10 of the molar value.

Chains of the proteins cited; added tags and fusions are not shown. Residues count along the entry.
UniProt P05067, 672-713: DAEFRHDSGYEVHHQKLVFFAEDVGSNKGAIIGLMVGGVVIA

Target: Aβ1-42 fibrils (Homo sapiens, UniProt P05067)
Settings: read-out: Kd values for ThT toward Aβ fibrils; cited from earlier work

Compound: Cc1ccc2c(c1)sc(-c1ccc(N(C)C)cc1)[n+]2C [ThT, thioflavin T]
- pKd: 4.52 to 5.70
